The entries are a selection whose mix differs from that of the whole data set. Some results for these compounds are left out of this collection, so the calls shown say nothing about other tests. Calls of active or inactive are those of the source.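 How the source made its calls: active means inhibition above a set limit, placed 3 SD over the median of all compounds (cut at about 26% in these data); inactive means the rest.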

This experiment is described as follows: rescue of nicotinamide-shortened yeast lifespan – S. cerevisiae, OD615, primary screen (AID 775).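 Further: 0% = nicotinamide-treated wells and 100% = cells grown without nicotinamide.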 The following applies: S. cerevisiae growth with nicotinamide, at 10 µM, stronger effect = higher value, deaD strain in restrictive glucose medium. The essentials: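 Assay system: engineered S. cerevisiae DeaD replicative-lifespan strain, galactose-grown log-phase cells; medium: restrictive CSMM-D dextrose medium; also added: nicotinamide, 1.5 mM, co-present with compound; schedule: 48 h compound exposure at 30 °C, humidified; detection: absorbance at 615 nm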
For `O=C(OC1CN2CCC1CC2)C(CO)(c1ccccc1)c1ccccc1` (stereo not given), the inhibition of the nicotinamide effect is inactive: -9.45%.
The result for `CN(C)c1cccc(C(=O)NCC2(N(C)C)CCCCC2)c1` reads inactive: -4.12%; that for `CN(C)C1CCCC1OC(=O)C(O)(c1ccccc1)c1ccccc1` (stereo not given), inactive: 1.78%; that for `CCN1CCCC(OC(=O)C2(O)c3ccccc3C=Cc3ccccc32)C1` (stereo not given), inactive: 2.84%.
With `CC(C)N1C(=O)CC2(CCN(CCOC(=O)C(O)(c3ccccc3)c3ccccc3)CC2)C1=O`, the inhibition of the nicotinamide effect was inactive: -10.8%.
